# Columns and labels:
# GCase [1] = target: T1, GCase (Homo sapiens, UniProt P04062); experiment: GCase activity enhancement (EC50, Emax; Table 2B); type: cell-based; details: hydrochloride
# T1 sequence (P04062 40-536): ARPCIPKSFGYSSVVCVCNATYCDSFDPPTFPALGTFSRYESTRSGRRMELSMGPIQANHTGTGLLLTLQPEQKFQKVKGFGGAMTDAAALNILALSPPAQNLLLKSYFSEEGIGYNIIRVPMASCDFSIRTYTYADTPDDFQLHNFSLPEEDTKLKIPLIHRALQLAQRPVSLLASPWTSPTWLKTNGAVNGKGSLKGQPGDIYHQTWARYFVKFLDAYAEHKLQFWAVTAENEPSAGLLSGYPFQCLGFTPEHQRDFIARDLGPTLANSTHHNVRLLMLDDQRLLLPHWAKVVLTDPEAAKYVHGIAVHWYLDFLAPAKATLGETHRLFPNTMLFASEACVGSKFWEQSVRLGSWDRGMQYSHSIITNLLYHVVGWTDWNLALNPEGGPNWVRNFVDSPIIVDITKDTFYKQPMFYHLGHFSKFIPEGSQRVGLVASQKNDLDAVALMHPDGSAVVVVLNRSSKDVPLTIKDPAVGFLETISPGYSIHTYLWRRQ
# GCase [2] = target: T2, GCase (Mus musculus, UniProt P17439); experiment: GCase enhancement in tissues of mice after 2-week oral dosing; type: in vivo, mice (C57BL/6); details: nine doses over 2 weeks
# T2 construct: Liver, spleen, lung, and brain tissues were removed; from tissue; host or cells: brain, spleen, liver and lung of wild-type C57BL/6 mice
# T2 sequence (P17439 20-515): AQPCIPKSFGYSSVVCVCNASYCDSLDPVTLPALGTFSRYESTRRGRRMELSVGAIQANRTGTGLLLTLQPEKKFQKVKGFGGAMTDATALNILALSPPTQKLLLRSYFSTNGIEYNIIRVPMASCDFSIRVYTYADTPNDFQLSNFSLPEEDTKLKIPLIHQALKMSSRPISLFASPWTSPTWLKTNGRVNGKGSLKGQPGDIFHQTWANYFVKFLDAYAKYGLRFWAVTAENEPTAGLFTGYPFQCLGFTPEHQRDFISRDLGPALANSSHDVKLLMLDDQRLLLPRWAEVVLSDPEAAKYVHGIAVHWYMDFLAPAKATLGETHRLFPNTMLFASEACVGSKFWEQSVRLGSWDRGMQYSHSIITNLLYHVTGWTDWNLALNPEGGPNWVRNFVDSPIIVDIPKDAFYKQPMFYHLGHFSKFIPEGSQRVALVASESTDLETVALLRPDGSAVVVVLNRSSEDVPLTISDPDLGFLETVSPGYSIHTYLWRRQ
# Experimental: The ability of orally administered test compounds (the hydrochloride salt form of Compound A and Compound B) to elevate GCase levels as compared to reference compound, IFG-tartrate, was assessed in mice. […] Seven animals were used per dose. The dosing solutions were prepared in water. Compounds were administered over 2 weeks as follows: week 1, Mon-Fri (On), Sat-Sun (Off); week 2, Mon-Thu (On); necropsy on Friday. Thus, a total of 9 doses (dosing solutions prepared fresh every day) were given to each mouse, with a 24-hour washout between the last dose and necropsy.
# Plasma was collected by spinning blood at 2700 g for 10 minutes at 4° C. Liver, spleen, lung, and brain tissues were removed, washed in cold PBS, blotted dry, flash frozen on dry ice, and stored at −80° C. until analysis. GCase levels were measured by homogenizing approximately 50 mg tissue in 500 μl McIlvane (MI) buffer (100 mM sodium citrate, 200 mM sodium phosphate dibasic, 0.25% sodium taurocholate, and 0.1% Triton X-100, pH 5.2) at pH 5.2 for 3-5 seconds on ice with a micro homogenizer. Homogenates were then incubated at room temperature without and with 2.5 mM conduritol-B-epoxide (CBE) for 30 min. Finally, 3.7 mM 4-methylumbeliferryl-β-glucoside (4-MUG) substrate was added and incubated at 37° C. for 60 min. Reactions were stopped by addition of 0.4 M glycine, pH 10.6. Fluorescence was measured on a plate reader for 1 sec/well using 355 nm excitation and 460 nm emission. Total protein was determined in lysates using the MicroBCA kit according to the manufacturer's instructions. A 4-methylumbelliferone (4-MU) standard curve ranging from 1.0 nM to 50 μM was run in parallel for conversion of raw fluorescence data to absolute GCase activity (in the presence and absence of CBE) and expressed as nanomoles of 4-MU released per milligram of protein per hour (nmol/mg protein/hr). GCase levels and protein levels were calculated using Microsoft Excel (Redmond, Wash.) and GraphPad Prism version 4.02.
Compound,Emax (GCase [1]),Emax (GCase [1]; listed as Compound A-HCl*),"GCase increase (-fold) (GCase [2]; brain, 10 mg/kg p.o., Table 3A)","GCase increase (-fold) (GCase [2]; brain, 100 mg/kg p.o., Table 3A)","GCase increase (-fold) (GCase [2]; spleen, 10 mg/kg p.o., Table 3B)","GCase increase (-fold) (GCase [2]; spleen, 100 mg/kg p.o., Table 3B)"
"Cl.O[C@@H]1[C@@H](CF)CNC[C@H]1O [Compound A-HCl, (3R,4R,5R)-5-(fluoromethyl)piperidine-3,4-diol hydrochloride]",96.8 ± 7.7%,104 ± 4.58%,–,–,–,–
"O[C@@H]1CNCC(CF)[C@H]1O (stereo in doubt) [Compound A, (3R,4R,5R)-5-(fluoromethyl)piperidine-3,4-diol]",–,–,2.5 -fold,3.5 -fold,1.9 -fold,2.8 -fold

# Reference: patent US20100261753A1, “METHODS FOR PREVENTING AND/OR TREATING DEGENERATIVE DISORDERS OF THE CENTRAL NERVOUS SYSTEM” (AMICUS THERAPEUTICS, INC., priority 2009, published 2010)
